{"source": "patent US20260382772A1", "about": "“KETO-AMIDE-BASED FIBROBLAST ACTIVATION PROTEIN-TARGETED LIGAND LINKED TO AN IMAGING OR THERAPEUTIC AGENT, COMPOSITIONS, AND METHODS OF USE” (published 2026)", "key": {"KB tumor bearing mice": {"tested_on": "KB tumor bearing mice", "experiment": "Toxicology (H&E histopathology) in KB tumor-bearing mice", "details": "single dose 37 MBq", "description": "Mice were weighed every other day during radiotherapy as a gross evaluation of health. Tissue sections from organs of interest (n=1-8 per organ per mouse) were preserved and examined blindly for lesions by a board-certified veterinary pathologist.\nTo assess toxicology in the KB tumor-bearing mice treated with Lu-Conjugate 24′, 4 μm sections of mouse heart, liver, and kidney tissue samples were taken following radiotherapy treatments of a single dose of [^177Lu] Lu-FAP8-PEG3-IP-DOTA (Lu-Conjugate 24′) and 37 MBq radiotherapy in athymic nu/nu mice bearing KB tumors. 1.0 mCi was used for the treatment. The tissue samples were stained with H&E and representative photomicrographs were taken (FIG. 49; Table 15)."}, "4T1 tumor bearing mice": {"tested_on": "4T1 tumor bearing mice", "experiment": "Dosimetry analysis using OLINDA software, 4T1 tumor", "details": "^177Lu", "description": "From the ex vivo biodistribution data obtained from the ^111In/^177Lu-FAP8-PEG3-IP-DOTA in 4T1 and HEK-FAP tumor bearing mice, the total absorbed radiation dose coefficients (mGy/MBq were calculated using OLINDA 2.2.3 software (Tables 9-12).\nFIGS. 36A and 36B show comparison data related to the total absorbed dose coefficient in selected organs (blood, heart, lungs, liver, spleen, kidney's bone marrow, and tumor). Dose estimates for healthy organs such as blood, heart, lungs, liver, spleen, kidneys, and bone marrow were calculated assuming a 25 g mouse phantom, whereas for tumor dose estimates were calculated with the sphere model. Time-activity curves were fitted to the biodistribution data of each organ individually with exponential functions."}}}
{"smiles": "COc1ccc(CNC(=O)C(=O)[C@@H]2CC(F)(F)CN2C(=O)CNC(=O)c2ccnc3ccc(OCC(=O)NCCOCCOCCOCCNC(=O)[C@H](CCCCNC(=O)CCCc4ccc(I)cc4)NC(=O)CN4CCN(CC(=O)O)CCN(CC(=O)O)CCN(CC(=O)O)CC4)cc23)cc1OC.[Lu+3]", "values": [{"measurement": "Heart histopathology", "setting": "KB tumor bearing mice; individual treated mice M4-M6", "result": "NDL"}, {"measurement": "Kidneys histopathology", "setting": "KB tumor bearing mice; individual treated mice M4-M6", "result": "NDL"}, {"measurement": "Lungs histopathology", "setting": "KB tumor bearing mice; individual treated mice M4-M6", "result": "NDL"}, {"measurement": "mice with histopathologic lesions consistent with mononuclear inflammation around portal areas", "setting": "KB tumor bearing mice; mice #4 and #6, no necrosis or neutrophil leukocytes", "result": "2 of the 3"}, {"measurement": "Kinetics value, Blood", "setting": "4T1 tumor bearing mice; 0.3 nmol/mouse", "result": "4.48E−1", "unit": "MBq-hr/MBq"}, {"measurement": "Kinetics value, Bone Marrow", "setting": "4T1 tumor bearing mice; 0.3 nmol/mouse", "result": "8.84E−02", "unit": "MBq-hr/MBq"}, {"measurement": "Kinetics value, Heart", "setting": "4T1 tumor bearing mice; 0.3 nmol/mouse", "result": "5.62E−01", "unit": "MBq-hr/MBq"}, {"measurement": "Kinetics value, Intestines", "setting": "4T1 tumor bearing mice; 0.3 nmol/mouse", "result": "1.76E−1", "unit": "MBq-hr/MBq"}, {"measurement": "Kinetics value, Kidneys", "setting": "4T1 tumor bearing mice; 0.3 nmol/mouse", "result": "1.22E0", "unit": "MBq-hr/MBq"}, {"measurement": "Kinetics value, Liver", "setting": "4T1 tumor bearing mice; 0.3 nmol/mouse", "result": "5.77E0", "unit": "MBq-hr/MBq"}, {"measurement": "Kinetics value, Lung", "setting": "4T1 tumor bearing mice; 0.3 nmol/mouse", "result": "9.69E−1", "unit": "MBq-hr/MBq"}, {"measurement": "Kinetics value, Spleen", "setting": "4T1 tumor bearing mice; 0.3 nmol/mouse", "result": "9.20E+0", "unit": "MBq-hr/MBq"}, {"measurement": "Kinetics value, Stomach", "setting": "4T1 tumor bearing mice; 0.3 nmol/mouse", "result": "1.81E−1", "unit": "MBq-hr/MBq"}, {"measurement": "Kinetics value, Tumor", "setting": "4T1 tumor bearing mice; 0.3 nmol/mouse", "result": "9.500E02", "unit": "MBq-hr/MBq"}, {"measurement": "Organ doses, Blood", "setting": "4T1 tumor bearing mice; 0.3 nmol/mouse", "result": "2.38E02", "unit": "mGy/MBq"}, {"measurement": "Organ doses, Bone Marrow", "setting": "4T1 tumor bearing mice; 0.3 nmol/mouse", "result": "3.382E02", "unit": "mGy/MBq"}, {"measurement": "Organ doses, Heart", "setting": "4T1 tumor bearing mice; 0.3 nmol/mouse", "result": "4.14E02", "unit": "mGy/MBq"}, {"measurement": "Organ doses, Intestines", "setting": "4T1 tumor bearing mice; 0.3 nmol/mouse", "result": "9.23E01", "unit": "mGy/MBq"}, {"measurement": "Organ doses, Kidneys", "setting": "4T1 tumor bearing mice; 0.3 nmol/mouse", "result": "3.57E02", "unit": "mGy/MBq"}, {"measurement": "Organ doses, Liver", "setting": "4T1 tumor bearing mice; 0.3 nmol/mouse", "result": "5.67E02", "unit": "mGy/MBq"}, {"measurement": "Organ doses, Lung", "setting": "4T1 tumor bearing mice; 0.3 nmol/mouse", "result": "2.84E02", "unit": "mGy/MBq"}, {"measurement": "Organ doses, Spleen", "setting": "4T1 tumor bearing mice; 0.3 nmol/mouse", "result": "1.46E03", "unit": "mGy/MBq"}, {"measurement": "Organ doses, Stomach", "setting": "4T1 tumor bearing mice; 0.3 nmol/mouse", "result": "8.58E01", "unit": "mGy/MBq"}, {"measurement": "Organ doses, Tumor", "setting": "4T1 tumor bearing mice; 0.3 nmol/mouse", "result": "9.04E02", "unit": "mGy/MBq"}, {"measurement": "Kinetics value, Blood", "setting": "4T1 tumor bearing mice; 1.0 nmol/mouse", "result": "5.84E−1", "unit": "MBq-hr/MBq"}, {"measurement": "Kinetics value, Bone Marrow", "setting": "4T1 tumor bearing mice; 1.0 nmol/mouse", "result": "3.5E−02", "unit": "MBq-hr/MBq"}, {"measurement": "Kinetics value, Heart", "setting": "4T1 tumor bearing mice; 1.0 nmol/mouse", "result": "2.39E−1", "unit": "MBq-hr/MBq"}, {"measurement": "Kinetics value, Intestines", "setting": "4T1 tumor bearing mice; 1.0 nmol/mouse", "result": "2.22E−1", "unit": "MBq-hr/MBq"}, {"measurement": "Kinetics value, Kidneys", "setting": "4T1 tumor bearing mice; 1.0 nmol/mouse", "result": "9.99E−01", "unit": "MBq-hr/MBq"}, {"measurement": "Kinetics value, Liver", "setting": "4T1 tumor bearing mice; 1.0 nmol/mouse", "result": "8.19E0", "unit": "MBq-hr/MBq"}, {"measurement": "Kinetics value, Lung", "setting": "4T1 tumor bearing mice; 1.0 nmol/mouse", "result": "5.16E−1", "unit": "MBq-hr/MBq"}, {"measurement": "Kinetics value, Spleen", "setting": "4T1 tumor bearing mice; 1.0 nmol/mouse", "result": "3.23E+0", "unit": "MBq-hr/MBq"}, {"measurement": "Kinetics value, Stomach", "setting": "4T1 tumor bearing mice; 1.0 nmol/mouse", "result": "2.08E−1", "unit": "MBq-hr/MBq"}, {"measurement": "Kinetics value, Tumor", "setting": "4T1 tumor bearing mice; 1.0 nmol/mouse", "result": "8.95E0", "unit": "MBq-hr/MBq"}, {"measurement": "Organ doses, Blood", "setting": "4T1 tumor bearing mice; 1.0 nmol/mouse", "result": "2.95E02", "unit": "mGy/MBq"}, {"measurement": "Organ doses, Bone Marrow", "setting": "4T1 tumor bearing mice; 1.0 nmol/mouse", "result": "1.14E02", "unit": "mGy/MBq"}, {"measurement": "Organ doses, Heart", "setting": "4T1 tumor bearing mice; 1.0 nmol/mouse", "result": "1.76E02", "unit": "mGy/MBq"}, {"measurement": "Organ doses, Intestines", "setting": "4T1 tumor bearing mice; 1.0 nmol/mouse", "result": "1.46E02", "unit": "mGy/MBq"}, {"measurement": "Organ doses, Kidneys", "setting": "4T1 tumor bearing mice; 1.0 nmol/mouse", "result": "2.94E02", "unit": "mGy/MBq"}, {"measurement": "Organ doses, Liver", "setting": "4T1 tumor bearing mice; 1.0 nmol/mouse", "result": "8.90E02", "unit": "mGy/MBq"}, {"measurement": "Organ doses, Lung", "setting": "4T1 tumor bearing mice; 1.0 nmol/mouse", "result": "1.36E02", "unit": "mGy/MBq"}, {"measurement": "Organ doses, Spleen", "setting": "4T1 tumor bearing mice; 1.0 nmol/mouse", "result": "4.13E02", "unit": "mGy/MBq"}, {"measurement": "Organ doses, Stomach", "setting": "4T1 tumor bearing mice; 1.0 nmol/mouse", "result": "6.44E−03", "unit": "mGy/MBq"}, {"measurement": "Organ doses, Tumor", "setting": "4T1 tumor bearing mice; 1.0 nmol/mouse", "result": "9.94E02", "unit": "mGy/MBq"}, {"measurement": "Kinetics value, Blood", "setting": "4T1 tumor bearing mice; 5 nmol/mouse", "result": "3.27E−01", "unit": "MBq-h/MBq"}, {"measurement": "Kinetics value, Bone Marrow", "setting": "4T1 tumor bearing mice; 5 nmol/mouse", "result": "1.99E−02", "unit": "MBq-h/MBq"}, {"measurement": "Kinetics value, Heart", "setting": "4T1 tumor bearing mice; 5 nmol/mouse", "result": "6.34E−002", "unit": "MBq-h/MBq"}, {"measurement": "Kinetics value, Intestines", "setting": "4T1 tumor bearing mice; 5 nmol/mouse", "result": "1.83E−1", "unit": "MBq-h/MBq"}, {"measurement": "Kinetics value, Kidneys", "setting": "4T1 tumor bearing mice; 5 nmol/mouse", "result": "8.89E−01", "unit": "MBq-h/MBq"}, {"measurement": "Kinetics value, Liver", "setting": "4T1 tumor bearing mice; 5 nmol/mouse", "result": "3.55E0", "unit": "MBq-h/MBq"}, {"measurement": "Kinetics value, Lung", "setting": "4T1 tumor bearing mice; 5 nmol/mouse", "result": "2.93E−01", "unit": "MBq-h/MBq"}, {"measurement": "Kinetics value, Spleen", "setting": "4T1 tumor bearing mice; 5 nmol/mouse", "result": "7.30E−1", "unit": "MBq-h/MBq"}, {"measurement": "Kinetics value, Stomach", "setting": "4T1 tumor bearing mice; 5 nmol/mouse", "result": "1.38E−1", "unit": "MBq-h/MBq"}, {"measurement": "Kinetics value, Tumor", "setting": "4T1 tumor bearing mice; 5 nmol/mouse", "result": "6.43E0", "unit": "MBq-h/MBq"}, {"measurement": "Organ doses, Blood", "setting": "4T1 tumor bearing mice; 5 nmol/mouse", "result": "3.49E02", "unit": "mGy/MBq"}, {"measurement": "Organ doses, Bone Marrow", "setting": "4T1 tumor bearing mice; 5 nmol/mouse", "result": "4.81E01", "unit": "mGy/MBq"}, {"measurement": "Organ doses, Heart", "setting": "4T1 tumor bearing mice; 5 nmol/mouse", "result": "4.55E01", "unit": "mGy/MBq"}, {"measurement": "Organ doses, Intestines", "setting": "4T1 tumor bearing mice; 5 nmol/mouse", "result": "9.04E01", "unit": "mGy/MBq"}, {"measurement": "Organ doses, Kidneys", "setting": "4T1 tumor bearing mice; 5 nmol/mouse", "result": "2.43E02", "unit": "mGy/MBq"}, {"measurement": "Organ doses, Liver", "setting": "4T1 tumor bearing mice; 5 nmol/mouse", "result": "2.70E02", "unit": "mGy/MBq"}, {"measurement": "Organ doses, Lung", "setting": "4T1 tumor bearing mice; 5 nmol/mouse", "result": "8.15E01", "unit": "mGy/MBq"}, {"measurement": "Organ doses, Spleen", "setting": "4T1 tumor bearing mice; 5 nmol/mouse", "result": "1.10E02", "unit": "mGy/MBq"}, {"measurement": "Organ doses, Stomach", "setting": "4T1 tumor bearing mice; 5 nmol/mouse", "result": "4.27E−03", "unit": "mGy/MBq"}, {"measurement": "Organ doses, Tumor", "setting": "4T1 tumor bearing mice; 5 nmol/mouse", "result": "1.14E03", "unit": "mGy/MBq"}]}
